In PubChem BioAssay (NCI):
This is a selection; strong and weak results do not stand in their true shares.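 Interpretation: 100, growth as untreated; towards 0, rising growth inhibition; 0, no net growth; 0 to -100, cell death. Compounds scoring below 10 were considered active.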 The source made the active and inactive calls.

Tests used:
Experiment in all cases: NCI-60 one-dose screen, 48 h (100 = growth as untreated, 0 = no growth, -100 = all killed)
Conditions in all cases: 10 µM unless noted
[1] = system: NCI-H23 lung
[2] = system: NCI-H226 lung
[3] = system: NCI-H322M lung
[4] = system: HOP-62 NSCLC
[5] = system: NCI-H460 lung
[6] = system: HOP-92 NSCLC
[7] = system: NCI-H522 lung
[8] = system: A549/ATCC NSCLC
[9] = system: 786-0 renal
[10] = system: COLO 205 colon
[11] = system: DU-145 prostate
[12] = system: K-562 leukemia
[13] = system: MALME-3M melanoma
[14] = system: MDA-MB-231 breast
[15] = system: RXF 393 renal
[16] = system: SF-268 CNS
[17] = system: SF-539 CNS
[18] = system: UACC-257 melanoma
[19] = system: M14 melanoma
[20] = system: SF-295 CNS

Measured: growth

CC(/C=N/N=C(\N)N[N+](=O)[O-])=N\N=C(/N)N[N+](=O)[O-]
inactive: [1] 115% | [2] 96.2% | [3] 106% | [4] 112% | [5] 109% | [6] 109% | [7] 95.3% | [8] 92.9% | [9] 104% | [10] 117% | [11] 117% | [12] 116% | [13] 109% | [14] 105% | [15] 95% | [16] 114% | [17] 95.3% | [18] 95.6% | [19] 102%

S=C(Nc1ccccc1)N(CCCl)CCCl
inactive: [1] 102% | [2] 99.5% | [3] 110% | [4] 110% | [5] 102% | [6] 61.7% | [7] 78% | [8] 91.7% | [9] 102% | [10] 123% | [11] 110% | [12] 101% | [13] 108% | [14] 108% | [15] 106% | [16] 106% | [20] 105% | [17] 89.1% | [18] 104% | [19] 99.4%

Cc1ccc(S(=O)(=O)n2cc(C3(O)CC(CC#N)OC3=O)c3cc(Br)ccc32)cc1 (stereo unspecified)
inactive: [1] 116% | [2] 111% | [3] 104% | [4] 100% | [5] 107% | [6] 79.1% | [7] 111% | [8] 105% | [9] 106% | [10] 207% | [11] 106% | [12] 96.1% | [13] 125% | [14] 107% | [15] 93.9% | [16] 103% | [20] 101% | [17] 101% | [18] 103% | [19] 115%

ClCCN1Cc2ccccc2C1
inactive: [1] 99% | [2] 87% | [3] 94.7% | [4] 102% | [5] 91.7% | [6] 80.1% | [7] 85% | [8] 96.2% | [9] 103% | [10] 96.5% | [11] 101% | [12] 118% | [13] 95.2% | [14] 95.8% | [15] 98.1% | [16] 103% | [20] 97.7% | [18] 98.6% | [19] 95.1%

CC(=O)Nc1ccc([As](=O)(O)O)c(O)c1
inactive: [1] 108% | [2] 106% | [3] 92.1% | [4] 111% | [5] 103% | [6] 68.1% | [7] 100% | [8] 96.4% | [9] 117% | [10] 106% | [11] 105% | [12] 97.4% | [13] 112% | [14] 105% | [15] 134% | [16] 102% | [20] 103% | [17] 99% | [18] 99.3% | [19] 109%

ClCCNCC1COc2ccccc2O1 (stereo unspecified)
inactive: [1] 99.5% | [2] 107% | [3] 107% | [4] 102% | [5] 105% | [6] 103% | [7] 93.5% | [8] 85.5% | [9] 101% | [10] 107% | [11] 102% | [12] 103% | [13] 103% | [14] 101% | [15] 103% | [16] 91.4% | [20] 98.8% | [17] 101% | [19] 104%

ClP1(Cl)=NP(Cl)(Cl)=NP(Cl)(Cl)=N1
inactive: [1] 104% | [2] 107% | [3] 104% | [4] 109% | [5] 99.8% | [6] 96% | [7] 84% | [8] 103% | [9] 115% | [10] 112% | [11] 115% | [12] 108% | [13] 117% | [14] 106% | [15] 118% | [16] 102% | [20] 109% | [18] 103% | [19] 99%

ClCCNC(Cc1ccccc1)c1ccccc1 (stereo unspecified)
inactive: [1] 89.5% | [2] 96% | [3] 102% | [4] 86.6% | [5] 103% | [6] 85.3% | [7] 85.1% | [8] 92% | [9] 96.9% | [10] 95.7% | [11] 104% | [12] 102% | [13] 106% | [14] 91.3% | [15] 107% | [16] 91.4% | [20] 96.4% | [17] 94.2% | [18] 94.6% | [19] 96.5%
